Data published in patent US9315496B2, “Benzopyrone derivative and use thereof” (HUAZHONG UNIVERSITY OF SCIENCE & TECHNOLOGY, priority 2011, dated 2016).

Tested on: KM mice
Settings: mouse, in vivo

For `Cc1nc2n(c(=O)c1CCN1CCC(c3noc4cc(F)ccc34)CC1)CCCC2` [risperidone, reference compound], which “EPS at effective dosage (in words)” value is on record?
The value was “did not cause EPS”.
